From patent US9120722B1, “Optically active valine complex and a method for producing the same” (Wellman Biosciences Co. Ltd., priority 2014, dated 2015)

Tests used:
[1] = 25° C.

Solubility in water [1]: 1.6 % by weight
Solubility in acetone (acetone): insoluble
Solubility in chloroform (chloroform): insoluble
Solubility in ethanol (ethanol): insoluble
Solubility in methanol (methanol): Slightly soluble
Solubility in toluene (toluene): insoluble
Substance: L-valine N-benzoyl-L-alanine complex
